Tests used:
[1] = test system: Phosphorylation of STAT6 in human PBMC (CD19+ B cells); assay: Phosphorylated STAT6 (pSTAT6) flow cytometry assay in human PBMC, IL-4 stimulated; details: read-out: STAT6 IL4 pSTAT6 assay in PBMC: Average IC50, compound 1 hour, 1 ng/ml IL-4 for 15 minutes
Description: Example 2. Phosphorylated STAT6 (pSTAT6) Flow Cytometry Assay in Human PBMC
Phosphorylation of STAT6 in human PBMC was quantitatively measured using flow cytometry technology. Human PBMC were seeded in 96-well plates with a density of 0.3 to 0.5 million cells per well in 100 μl fresh media. Compounds were then added to the assay plates with a final top concentration of up to 30 μM in a 1:3 dilution series with total of 9 doses. The assay plates were incubated for 1 hour at 37° C. under 5% CO2. The cells were then stimulated with 1 ng/ml of IL-4 (R&D Systems, Cat #6507-IL) for 15 minutes, followed by fixation for 30 minutes at 4° C. Cells were spun down at 350 g for 5 minutes. The supernatant was removed and cells were washed once with FACS buffer. Cells were permeabilized with 90% MeOH/H2O for 30 minutes at 4° C., followed by one wash with FACS buffer. Non-specific binding were blocked with human Fc for 1 hour at 4 C, followed by one wash with FACS buffer. AF488 conjugated pSTAT6 antibody (BD Biosciences, Cat #612600, 1:100 dilution) and PE conjugated CD19 antibody (BD Biosciences, Cat #341103, 1:50 dilution) diluted in 100 μl FACS buffer was added to each well with overnight incubation at 4° C. Cells were then washed once with FACS buffer and resuspended in 200 μl of FACS buffer for flow cytometry to quantify pSTAT6 in CD19+ B cells. The data was analyzed by GraphPad Prism and the dose dependent pSTAT6 inhibition was fit using the four-parameter inhibitor vs. response nonlinear regression.

Sequences of proteins named here, by UniProt entry; tags and fusion partners are left off. Residues count along the entry.
UniProt P42226, 123-632 limits assumed: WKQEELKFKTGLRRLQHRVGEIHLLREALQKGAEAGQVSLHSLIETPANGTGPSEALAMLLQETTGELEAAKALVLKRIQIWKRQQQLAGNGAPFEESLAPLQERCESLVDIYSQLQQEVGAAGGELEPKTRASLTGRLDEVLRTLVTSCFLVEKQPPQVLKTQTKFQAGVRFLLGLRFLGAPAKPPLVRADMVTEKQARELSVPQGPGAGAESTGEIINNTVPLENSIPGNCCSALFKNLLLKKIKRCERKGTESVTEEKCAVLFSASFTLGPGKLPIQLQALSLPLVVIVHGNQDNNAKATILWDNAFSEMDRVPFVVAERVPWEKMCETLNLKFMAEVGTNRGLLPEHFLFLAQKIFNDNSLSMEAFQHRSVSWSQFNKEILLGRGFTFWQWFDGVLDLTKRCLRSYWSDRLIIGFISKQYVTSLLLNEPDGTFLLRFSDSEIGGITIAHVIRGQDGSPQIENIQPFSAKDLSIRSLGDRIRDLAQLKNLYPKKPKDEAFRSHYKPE

[2] = target: biotinylated truncated STAT6 (123-632)-avi (Homo sapiens, UniProt P42226); assay: Homogenous Time-Resolved Fluorescence (HTRF) binding assay; details: read-out: STAT6 HTRF: Average IC50; 0.15 nM biotinylated truncated STAT6 (123-632)-avi, 20 nM fluorescein-labeled probe, 30 minutes at room temperature
Description: Example 1. Homogenous Time-Resolved Fluorescence (HTRF) Binding Assay
HTRF binding assays were performed using 0.15 nM biotinylated truncated STAT6 (123-632)-avi purified from E. coli, 1× Streptavidin-terbium (CisBio) prepared by mixing SA-Tb in PPI detection buffer (CisBio), 20 nM proprietary fluorescein-labeled probe, and test compounds in assay buffer consisting of 50 mM HEPES-Na pH 7.5, 100 mM NaCl, 1 mM EDTA, 2 mM DTT, 0.1% Tween-20 with a final volume of 20 uL. Compound stocks were dissolved at 10 mM in 100% DMSO and 11 point titration with 3 fold serial dilution was performed in white, opaque 384 well microplates. Reaction plates were incubated at room temperature for 30 minutes. Plates were centrifuged at low rpm for 5 mins, and the ratio of fluorescence intensities were measured at emission wavelengths for fluorescein acceptor (520 nm) and terbium donor (495 nm) on Envision Plate reader. % Inhibition was calculated from the 520/495 ratio generated by using proprietary positive control compound for 100% inhibition and DMSO only reactions for 0% inhibition. Data was processed and dose response curves were generated using GraphPad Prism to determine the concentration required for inhibiting 50% of the HTRF signal (IC50).

[3] = test system: Phosphorylation of STAT6 in human A549 cells; assay: Phosphorylated STAT6 (pSTAT6) flow cytometry assay in human A549 cells; details: read-out: STAT6 IL4 pSTAT6 assay in A549 cells: Average IC50
Text: Example 3. Phosphorylated STAT6 (pSTAT6) Flow Cytometry Assay in Human A549 Cells
Phosphorylation of STAT6 in human A549 cells was quantitatively measured using flow cytometry technology.

CN(C)C(=O)c1cc2cc(C3=CCCN(C(=O)Cc4ccc5c(c4)CNCC5)C3)ccc2o1
IC50 [1]: > 100 µM
IC50 [2]: 10 to 100 µM

CN(C)C(=O)c1cc2ccc(C3=CCCN(C(=O)CCn4cccnc4=O)C3)cc2[nH]1
IC50 [1]: 10 to 100 µM
IC50 [2]: 0.1 to 1 µM

CCC12CC(C(=O)N3CCC=C(c4ccc5cc(C(=O)N(C)C)[nH]c5c4)C3)(C1)C2
IC50 [1]: > 100 µM
IC50 [2]: 10 to 100 µM

CN(C)C(=O)c1cc2ccc(C3=CCCN(C(=O)C45CC(C4)C5)C3)cc2[nH]1
IC50 [1]: > 100 µM
IC50 [2]: 10 to 100 µM

Cc1ccc(S(=O)(=O)N[C@@H](C)C(=O)N2CCC=C(c3ccc4cc(C(=O)N(C)C)[nH]c4c3)C2)cc1
IC50 [1]: > 100 µM
IC50 [2]: 10 to 100 µM

CO[C@H](C(=O)N1CCC=C(c2ccc3cc(C(=O)N(C)C)[nH]c3c2)C1)c1ccccc1 (single isomer, unassigned)
IC50 [1]: > 100 µM
IC50 [2]: 10 to 100 µM

CN(C)C(=O)c1cc2cc(C3CCN(C(=O)CCn4ccnn4)CC3)ccc2o1
IC50 [1]: > 100 µM
IC50 [2]: 10 to 100 µM

CN(C)C(=O)c1cc2cc(C3CC[C@@H](CO)N(C(=O)CCn4ccnn4)C3)ccc2o1 (some centres unmarked)
IC50 [1]: > 100 µM
IC50 [2]: > 100 µM

CN(C)C(=O)c1cc2ccc(C3=CCCN(C(=O)[C@@H]4CC[C@H](C(=O)O)C4)C3)cc2[nH]1
IC50 [1]: 10 to 100 µM
IC50 [2]: 10 to 100 µM

CN(C)C(=O)c1cc2ccc(C3=CCCN(C(=O)[C@@H](CO)c4ccccc4)C3)cc2[nH]1 (single isomer, unassigned)
IC50 [1]: > 100 µM
IC50 [2]: 10 to 100 µM

CN(C)C(=O)c1cc2ccc(C3=CCCN(C(=O)Cn4ncccc4=O)C3)cc2[nH]1
IC50 [1]: > 100 µM
IC50 [2]: 10 to 100 µM

CN(C)C(=O)c1cc2cc(C3=CCCN(C(=O)[C@H]4Cc5c(cccc5N5CCNCC5)CN4C=O)C3)ccc2o1 (single isomer, unassigned)
IC50 [1]: > 100 µM
IC50 [2]: 10 to 100 µM

CN(C)C(=O)c1cc2ccc(C3=CCCN(C(=O)C4Cc5ccccc5CN4C)C3)cc2[nH]1 (centres unmarked)
IC50 [1]: > 100 µM
IC50 [2]: 10 to 100 µM

CN(C)C(=O)c1cc2cc(C3CC[C@H](CO)N(C(=O)CCn4ccnn4)C3)ccc2o1 (some centres unmarked)
IC50 [1]: > 100 µM
IC50 [2]: > 100 µM

CN(C)C(=O)c1cc2cc(C3=CCCN(C(=O)CCn4ccnn4)C3)ccn2n1
IC50 [1]: 10 to 100 µM
IC50 [2]: 1 to 10 µM

CN(C)C(=O)c1cc2ccc(C3=CCCN(C(=O)c4cc(-c5ccccc5)n5ccccc45)C3)cc2[nH]1
IC50 [1]: > 100 µM
IC50 [2]: 10 to 100 µM

COc1cc(F)cnc1N1CCN(C(=O)c2cc3c(-c4cccc5nc(C)ccc45)cc(C4=CCCN(C(=O)CCn5ccnn5)C4)c(F)c3[nH]2)CC1
IC50 [2]: < 0.1 µM
IC50 [3]: < 0.1 µM

CCc1cc(C)ncc1-c1cc(C2=CCCN(C(=O)CCn3ccnn3)C2)c(F)c2[nH]c(C(=O)N3CCN(c4ncc(C)nc4OC)CC3)cc12
IC50 [2]: < 0.1 µM
IC50 [3]: < 0.1 µM

COc1cc2[nH]ccc2cc1-c1cc(C2=CCCN(C(=O)CCn3ccnn3)C2)cc2[nH]c(C(=O)N(C)C)cc12
IC50 [2]: < 0.1 µM
IC50 [3]: < 0.1 µM

Source: patent US20250214977A1, “STAT6 INHIBITORS AND USES THEREOF” (Kymera Therapeutics, Inc., priority 2024, published 2025)
